Assay results as given in patent US20210338716A1, “Sodium Chlorite Compositions with Enhanced Anti-Viral and Anti-Microbial Efficacy and Reduced Toxicity” (iRenix Medical, Inc., priority 2020, published 2021).

Settings: LDPE containers; e-beam doses up to 25 kGy with freezing (sample 12006)

sodium chlorite
concentration of sodium chlorite following electron-beam terminal sterilization: remained stable
